Source: ChEMBL document CHEMBL1155260, “Synthesis and investigations of double-pharmacophore ligands for treatment of chronic and neuropathic pain” (2009)

Protein sequences, listed by entry. Tags and fused reporters are not part of them.
UniProt P32300, whole entry, looked up: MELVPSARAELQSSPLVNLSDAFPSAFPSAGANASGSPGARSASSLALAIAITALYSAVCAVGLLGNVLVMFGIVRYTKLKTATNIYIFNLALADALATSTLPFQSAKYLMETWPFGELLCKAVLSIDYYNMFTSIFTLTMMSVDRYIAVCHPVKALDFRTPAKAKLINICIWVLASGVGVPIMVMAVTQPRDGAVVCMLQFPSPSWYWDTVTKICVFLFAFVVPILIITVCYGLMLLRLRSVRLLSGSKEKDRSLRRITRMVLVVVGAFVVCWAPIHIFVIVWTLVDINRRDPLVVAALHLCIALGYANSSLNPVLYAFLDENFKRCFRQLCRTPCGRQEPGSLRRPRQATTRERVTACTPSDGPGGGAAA

Legend:
[1] = target: Delta-type opioid receptor (Mus musculus) (UniProt P32300); test: Antagonist activity at delta opioid receptor in ICR mouse vas deferens assessed as reversal of DPDPE-induced inhibition of electrically-stimulated muscle contraction at 1 uM
[2] = system: Rattus norvegicus; test: Antinociceptive activity in intrathecally dosed Sprague-Dawley rat of L5 and L6 spinal nerve ligated chronic neuropathic pain model assessed as inhibition of injury related abnormal pain

| Structure (SMILES) | Activity [1] | Activity [2] |
| --- | --- | --- |
| Cc1c(CC(=O)O)c2ccccc2n1C1CCN(C)CC1 | inactive | inactive |
| COc1ccc2c(c1)c(CC(=O)O)c(C)n2C1CCN(C)CC1 | inactive | inactive |
| Cc1c(CC(=O)O)c2ccccc2n1C1CCN(CCc2ccccc2)CC1 | inactive | inactive |
| COc1ccc2c(c1)c(CC(=O)O)c(C)n2C1CCN(CCc2ccccc2)CC1 | inactive | inactive |

Calls of active or inactive are those of the source. No cut-off for these calls is given here.
